# From published antibiotic growth screens (doi:10.1038/s41589-023-01349-8)
# The list shows a part of the results.
# Tested on: A. baumannii ATCC 17978
# Assay: relative growth (fraction of control); higher = less inhibition
# Conditions: 50 µM
row,Compound,relative growth
1,COc1ccc(-c2cc(=O)c3c(O)c(OC)c(O[C@H]4O[C@H](CO[C@@H]5O[C@@H](C)[C@H](O)[C@@H](O)[C@H]5O)[C@@H](O)[C@H](O)[C@H]4O)cc3o2)cc1,1.06
2,COCC(=O)Nc1ccc2c(c1)C(=O)N(C)C[C@H](OC)[C@@H](C)CN(Cc1ccccc1F)[C@@H](C)CO2,0.939
3,COc1ccccc1CNC(=O)C[C@H]1C[C@@H]2c3cc(NC(=O)c4ccc5c(c4)OCO5)ccc3O[C@@H]2[C@@H](CO)O1,1.06
4,C=C1C/C=C(\C)CC[C@@H]2[C@@H]1CC2(C)C,1.14
5,CCN([NH2+][O-])c1ccc(O)c(O)c1,1.01
6,COc1ccc(-n2nc(CCC(=O)N(C)O)cc2-c2ccc(Cl)cc2)cc1,1.05
7,CO[C@@H]1CN(C)C(=O)c2cc(NS(=O)(=O)CC(F)(F)F)ccc2OC[C@H](C)N(Cc2ccccn2)C[C@@H]1C,1.01
8,O=C(Cc1ccccn1)NCC[C@@H]1CC[C@@H](NC(=O)CN2CCOCC2)[C@@H](CO)O1,1.19
9,O=C(O)c1cc(O)c(O)c(O)c1,1.39
10,CCn1c(N)c(C(N)=O)sc1=S,0.951
11,CCN(CC)C(=O)N1CCN(C)CC1,1.02
12,CCCCc1c(C)nc2ccc(Br)cc2c1SC(N)N,1.02
13,Cn1cnc(S(=O)(=O)N[C@@H]2C=C[C@H](CC(=O)NCC3CC3)O[C@@H]2CO)c1,1.13
14,COc1c(OC)c2occc2c2oc(=O)ccc12,1.22
15,C[C@@H]1CN([C@@H](C)CO)C(=O)CCCn2nncc2CO[C@H]1CN(C)S(=O)(=O)c1ccc(Cl)cc1,0.964
16,CC(C)=CCC/C(C)=C/COc1ccc2ccc(=O)oc2c1,1.29
17,CCc1c(C(=O)OC)nnn1-c1nonc1N,1.04
18,CC1(C)C(=O)[C@@H]2C[C@@]3(O)C4=CC(=O)O[C@@H](c5ccoc5)[C@]4(C)CCC3[C@](C)(C2=O)[C@H]1CC(=O)O (stereo partly specified),0.886
19,C=C(CC[C@@H](C)[C@H]1CC[C@@]2(C)C3=C(C[C@H](O)[C@]12C)[C@@]1(C)CC[C@@H](OC(=O)CC(=O)O)C(C)(C)[C@@H]1CC3)[C@@H](C)C(=O)O,1.47
20,CO[C@H]1CN(C)C(=O)c2ccc(NC(=O)C3CC3)cc2OC[C@@H](C)N(C(=O)CN2CCOCC2)C[C@@H]1C,0.992
21,Cc1ccc(CCSc2ccc(Cl)c(Cl)c2)cn1,0.816
22,OCCN1C[C@@H](O)[C@@H](O)C(O)C1CO (stereo partly specified),0.944

row,Compound,relative growth
1,C=c1ccccc1=C1NN=C(CN2CCCC2)O1,1.09
2,O=C(/C=C/c1cccc(-c2cn(CC(=O)N3CCC4(CC3)C(=O)NCN4c3ccccc3)nn2)c1)NO,0.887
3,O=C(C[C@H]1CC[C@H](NS(=O)(=O)c2ccccc2)[C@@H](CO)O1)NCc1ccncn1,1.07
4,CCc1nc2ccccc2c(C(=O)Nc2cccc(Cl)c2)c1C,1.02
5,Cl.Cl.O=C1c2c(O)ccc(O)c2C(=O)c2c(NCCNCCO)ccc(NCCNCCO)c21,1.96
6,COc1cccc(NC(=O)N[C@@H]2CC[C@H](CC(=O)N3CCN(C)CC3)O[C@@H]2CO)c1,0.967
7,CCCC(CCC)C(=O)[O-].[Na+],1.03
8,COc1ccc(NC(=O)Nc2ccc3c(c2)[C@@H]2C[C@@H](CC(=O)NCc4ccccn4)O[C@@H](CO)[C@@H]2O3)cc1,0.917
9,Cn1cnc(S(=O)(=O)N[C@@H]2CC[C@@H](CC(=O)Nc3ccccc3)O[C@@H]2CO)c1,0.927
10,CCS(=O)(=O)NCC[C@@H]1CC[C@@H](NC(=O)C2CC2)[C@@H](CO)O1,0.892
11,Cc1cc(C)n([C@@H](CC(=O)O)C(=O)O)n1,0.963
12,CO[C@@H](CN(C)S(=O)(=O)c1cccc(Cl)c1)[C@@H](C)CN([C@H](C)CO)S(=O)(=O)c1ccc(Cl)cc1,0.816
13,Cn1cnc(S(=O)(=O)N[C@@H]2C=C[C@H](CC(=O)Nc3ccccc3)O[C@@H]2CO)c1,0.99
14,C[C@@H]1CN([C@H](C)CO)S(=O)(=O)c2ccc(C#CC(C)(C)O)cc2O[C@H]1CN(C)Cc1ccccc1,0.676
15,NC(=O)NO,1.14
16,Clc1ccccc1C(c1ccccc1)(c1ccccc1)n1ccnc1,1.95
17,O=C1O[C@@H](c2ccccc2)[C@@H](c2ccccc2)N2[C@@H](c3ccc(OCCO)cc3)[C@]3(C(=O)Nc4ccccc43)[C@@H](C(=O)Nc3nc4ccccc4s3)[C@H]12,0.944
18,COc1cccc(NC(=O)N2C[C@H](O)COC[C@H]3O[C@@H](CC(=O)NCc4ccccc4F)CC[C@@H]32)c1,0.793
19,CS(=O)(=O)NCCc1ccccc1,1.04
20,COc1cccc(NC(=O)N2C[C@H](O)COC[C@@H]3O[C@H](CC(=O)NCc4ccccc4F)CC[C@H]32)c1,0.988
21,COc1ccc(CNC(=O)C[C@H]2C[C@@H]3c4cc(NC(=O)NC5CCCC5)ccc4O[C@@H]3[C@H](CO)O2)cc1,1.12
22,O=C(O)CCc1nc2ccccc2[nH]c1=O,0.875

row,Compound,relative growth
1,O=C(c1ccccc1)N1Cc2ccccc2[C@H]2OC(c3ccc(OCCCO)cc3)=N[C@@]2(Cc2ccccc2)C1=O,0.985
2,CCNC(=O)C[C@@H]1CC[C@@H](NC(=O)C2CCOCC2)[C@H](CO)O1,1.08
3,C[C@H]1[C@H]([Si](C)(C)F)[C@@H](CCO)O[C@]12C(=O)N(Cc1ccccc1)c1ccc(N3C(=O)c4ccccc4Oc4ccccc43)cc12,0.866
4,C=CC[C@@H]1/C=C(\C)C[C@H](C)C[C@H](OC)[C@H]2O[C@@](O)(C(=O)C(=O)N3CCCC[C@H]3C(=O)O[C@H](/C(C)=C/C3CC[C@@H](O)[C@H](OC)C3)[C@H](C)[C@@H](O)CC1=O)[C@H](C)C[C@@H]2OC (stereo partly specified),0.997
5,CCOC(=O)C[C@@H](N)c1ccccc1Cl,0.929
6,Nc1nc2ncc(=O)[nH]c2c(=O)[nH]1,1.01
7,O=C(C[C@H]1CC[C@H](NS(=O)(=O)c2ccccc2F)[C@H](CO)O1)NCCCN1CCOCC1,1.07
8,CN(C)CC(=O)N[C@@H]1CC[C@@H](CCNC(=O)C2CCC2)O[C@@H]1CO,1.05
9,Cl.Cl.O=C(O)COCCN1CCN([C@H](c2ccccc2)c2ccc(Cl)cc2)CC1,1.01
10,CCCCOc1cc(C(=O)NCCN(CC)CC)c2ccccc2n1.Cl,1.01
11,CC[C@H]1[C@H](OC(C)=O)C2=C(CC3C(=O)OC(=O)/C3=C/[C@H]1CC)C(=O)OC2=O (stereo partly specified),1.2
12,Nc1nc2nn[nH]c2c(=O)[nH]1,1.02
13,Cc1[nH]c(=O)[nH]c(=O)c1/C=C/C(=O)O,0.958
14,COC(=O)CNc1nc(OC)nc(N(C)C)n1,0.889
15,C=CCC[C@H](Cc1ccc(F)cc1)C(=O)O[C@H](CNC(=O)[C@H](CC=C)CC(=O)N(CCO)Cc1ccccc1)c1ccccc1,1.35
16,C[C@@H]1CN([C@H](C)CO)C(=O)c2cc(C#CC3(O)CCCC3)cnc2O[C@@H]1CN(C)S(C)(=O)=O,1.09
17,O=C(CN1CCOCC1)N[C@H]1CC[C@@H](CCn2cc(C3CCCC3)nn2)O[C@@H]1CO,0.957
18,OCC(O)CN1CCN(c2ccccc2)CC1 (stereo unspecified),0.93
19,[Cl][Ca][Cl],1.16
20,CCOC(=O)N(C)C[C@H]1OCc2cnnn2CCCC(=O)N([C@@H](C)CO)C[C@@H]1C,1.11
21,O=C(C[C@@H]1CC[C@@H]2[C@H](COC[C@H](O)CN2S(=O)(=O)c2cccc(Cl)c2)O1)N1CCOCC1,1.05
22,COc1cc2c(cc1OC)C(=O)OC2,0.94

row,Compound,relative growth
1,C[C@@H]1CN([C@@H](C)CO)S(=O)(=O)c2ccc(C#Cc3ccccc3)cc2O[C@H]1CN(C)S(=O)(=O)c1cn(C)cn1,1.03
2,O=C(C[C@@H]1CC[C@@H]2[C@H](COC[C@@H](O)CN2S(=O)(=O)c2ccc(Cl)cc2)O1)N[C@@H]1CCN(Cc2ccccc2)C1,0.882
3,C[C@@H]1O[C@@H](OC[C@H]2O[C@@H](OCCc3ccccc3)[C@H](O)[C@@H](O)[C@@H]2O)[C@H](O)[C@H](O)[C@H]1O,1.1
4,Cl.OC(CCN1CCCCC1)(c1ccccc1)C1CCCCC1 (stereo unspecified),1.04
5,Nc1nnc(CC(=O)N2CCCCC2)o1,0.949
6,COC(=O)[C@@H](NC(=O)Cn1cc(C(=O)NO)nn1)c1ccccc1,0.996
7,O=C(CNc1ccc2c(c1)oc1ccccc12)c1ccc(F)cc1,0.374
8,COC1=CC(=O)C[C@@H](C)[C@]12Oc1c(Cl)c(OC)cc(OC)c1C2=O,1.07
9,CCC(=O)NCC[C@@H]1CCc2ccc3c(c21)CCO3,1.44
10,OC[C@H]1O[C@](O)(CO)[C@@H](O)[C@@H]1O,1.1
11,C[C@@H]1CCCCO[C@@H](CN(C)Cc2ccc3c(c2)OCO3)[C@H](C)CN([C@H](C)CO)C(=O)c2cc(NS(=O)(=O)c3cccs3)ccc2O1,0.832
12,CCOC(=O)N1CCN(C[C@@H](O)Cn2c(=O)c3c(ncn3C)n(C)c2=O)CC1,1.06
13,N#CCC(=O)NCc1ccccn1,0.911
14,COc1ccc(-c2coc3cc(O)cc(O)c3c2=O)cc1,1.02
15,O=C(CN1CCOCC1)NCC[C@@H]1CC[C@H](NC(=O)Cc2ccccn2)[C@H](CO)O1,0.952
16,C[C@@H]1CC[C@]2(C(=O)O[C@@H]3O[C@H](CO[C@@H]4O[C@H](CO)[C@@H](O[C@H]5O[C@H](C)[C@H](O)[C@@H](O)[C@H]5O)[C@H](O)[C@H]4O)[C@@H](O)[C@H](O)[C@H]3O)CC[C@]3(C)C(=CCC4[C@@]5(C)C[C@@H](O)[C@H](O)[C@@](C)(CO)C5CC[C@]43C)C2[C@H]1C (stereo partly specified),0.946
17,CC(C)(C)c1ccc(CSCc2nc3ccccc3[nH]2)cc1,0.987
18,CC(C)(C)N.CCC[C@H](N[C@@H](C)C(=O)N1[C@H](C(=O)O)C[C@@H]2CCCC[C@@H]21)C(=O)OCC,0.985
19,O=C(O)Cn1cc(Br)c(=O)[nH]c1=O,1.12
20,CNC(=O)c1c(I)c(NC(C)=O)c(I)c(C(=O)O)c1I,1.12
